Earlier results in publication PMC4160250.

Chains of the proteins cited; added tags and fusions are not shown. Residues count along the entry.
UniProt P45974, 654-762: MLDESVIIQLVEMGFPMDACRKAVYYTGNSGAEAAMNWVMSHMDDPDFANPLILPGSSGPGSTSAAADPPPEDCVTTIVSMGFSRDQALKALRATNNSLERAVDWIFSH

Target: USP5 UBA12 (Homo sapiens) (UniProt P45974)
Conditions: cited from earlier work

In the case of Ubiquitin (from UniProt P0CG48), the Kd is given as 50 µM.
